Laboratory results: US20210340245A1 (Janssen / Centocor, published 2021)

Sequences of proteins named here, by UniProt entry; tags and fusion partners are left off. Residues count along the entry.
UniProt P01375, 77-233 limits assumed: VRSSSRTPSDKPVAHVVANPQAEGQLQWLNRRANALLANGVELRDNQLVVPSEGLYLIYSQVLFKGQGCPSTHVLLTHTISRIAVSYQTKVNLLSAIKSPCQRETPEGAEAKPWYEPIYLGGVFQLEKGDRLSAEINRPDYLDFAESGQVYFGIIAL

Target: T1, recombinant human TNFα (human, UniProt P01375 77-233, 125I label in the receptor-blocking assay)
T1 construct: also called huTNFα; tumor necrosis factor alpha
Test: competition radioligand assay: cA2 spiked into anti-IL-18 control supernatant, preincubated with 125I-TNFα (5 ng/ml); binding of TNFα to plate-coated p55-sf2 read as cpm bound

- IC50 (read off the curve): ~10 ng/mL
B1: chimeric antibody cA2 (antibody, V domains shown)
VH: EVKLEESGGGLVQPGGSMKLSCVASGFIFSNHWMNWVRQSPEKGLEWVAEIRSKSINSATHYAESVKGRFTISRDDSKSAVYLQMTDLRTEDTGVYYCSRNYYGSTYDYWGQGTTLTVS
VL: DILLTQSPAILSVSPGERVSFSCRASQFVGSSIHWYQQRTNGSPRLLIKYASESMSGIPSRFSGSGSGTDFTLSINTVESEDIADYYCQQSHSWPFTFGSGTNLEVK
